From PubChem BioAssay AID1508602 (The Scripps Research Institute Molecular Screening Center, 2020)
Only a part is listed here, and it is no random draw. Active and inactive are the calls of the source. No stated cut-off is given here; in the data, active means activation above about 4.9%; inactive means the rest.

Sequences of proteins named here, by UniProt entry; tags and fusion partners are left off.
UniProt Q8TDV0, whole entry: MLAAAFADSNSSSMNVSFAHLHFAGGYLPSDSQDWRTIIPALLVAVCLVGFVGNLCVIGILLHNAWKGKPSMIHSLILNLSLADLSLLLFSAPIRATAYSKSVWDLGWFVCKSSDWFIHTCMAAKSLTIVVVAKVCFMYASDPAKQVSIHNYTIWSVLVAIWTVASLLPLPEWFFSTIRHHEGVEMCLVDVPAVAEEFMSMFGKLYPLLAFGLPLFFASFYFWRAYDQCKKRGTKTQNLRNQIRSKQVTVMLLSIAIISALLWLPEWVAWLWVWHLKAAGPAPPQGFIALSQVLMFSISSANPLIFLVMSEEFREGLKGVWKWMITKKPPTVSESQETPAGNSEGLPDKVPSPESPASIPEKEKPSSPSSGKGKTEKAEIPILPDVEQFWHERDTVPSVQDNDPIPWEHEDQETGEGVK

Each compound was assayed against G-protein coupled receptor 151 (Homo sapiens) (UniProt Q8TDV0) (assay: activators of human GPR151, primary screen, cell-based, PathHunter beta-arrestin, luminescence (AID 1508602;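 further: 0% = median of compound wells and 100% = cells with positive control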)). Settings: PathHunter beta-arrestin GPR151 cells, at 11.2 µM, active compounds read high.
For `N#CC1(Nc2ccccc2)CCN(Cc2ccccc2)CC1`, the activation was inactive: 0.521%.
For `CC1CN(CCc2ccccc2)CCC1=O` (centres undefined), the activation was inactive: 0.0837%.
In the case of `CCOC(=O)N1CCC(Nc2ccc(OC)cc2)CC1`, the activation is reported as inactive: -1.5%.
`CN(CCOC(=O)C(O)(c1ccccc1)c1ccccc1)C(C)(C)C` was tested, and the activation was inactive: 1.23%.
In the case of `COc1ccc(C(=O)NCC2(N3CCCCC3)CCCCC2)c(OC)c1OC`, the activation is reported as inactive: -0.218%.
For `CCCN1CCC(Nc2ccc(OC)c(OC)c2)CC1`, the activation was inactive: 1.77%.
With `COc1ccc(C(=O)NCC2(N3CCCCC3)CCCCC2)cc1` the activation was inactive: 0.0355%.
With `CCOC(=O)N1CCC(Nc2cccc(C)c2)CC1` the activation was inactive: 0.184%.
With `COc1cccc(CN(CCCl)CCCl)c1` the activation was inactive: 0.391%.
In the case of `CN(C)P(=O)(OC(C)(C)C(Cl)(Cl)Cl)SCCCCl` (centres undefined), the activation is reported as inactive: 0.569%.
With `CCOC(=O)N1CCC(Nc2ccc(F)cc2)CC1` the activation was inactive: -0.389%.
With `COc1ccc(NC2CCN(CCc3ccccn3)CC2)cc1` the activation was inactive: 0.284%.
With `O=C1CCN(Cc2ccccc2)CC1` the activation was inactive: -0.662%.
`CCCN1CCC(Nc2ccc(F)cc2)CC1` was tested, and the activation was inactive: 1.13%.
In the case of `CC(=O)N1CCc2ccc(N(C(=O)C(C)(C)C)C3CCN(Cc4ccccc4)CC3)cc21`, the activation is reported as inactive: -0.0701%.
`O=C(NCC1(N2CCOCC2)CCCCC1)c1cc(=O)[nH]c2ccccc12` was tested, and the activation was inactive: -1.42%.
In the case of `COc1ccccc1/C=C/CN1CCN(C(C)=O)CC1`, the activation is reported as inactive: 0.444%.
In the case of `CN1CCN(CCOC(=O)C(O)(c2ccccc2)c2ccccc2)CC1`, the activation is reported as inactive: -0.159%.
With `CCN1CCC(Nc2ccc(Cl)cc2)CC1` the activation was inactive: 1.26%.
With `COc1ccc(CCN2CCC(N(Cc3ccco3)C(C)=O)CC2)cc1` the activation was inactive: 1.04%.
With `O=C(NCC1(N2CCCCC2)CCCCC1)c1cccc([N+](=O)[O-])c1` the activation was inactive: -0.568%.
With `COc1ccc(NC2CCN(CCc3cccs3)CC2)cc1` the activation was inactive: 1.2%.
With `CCN1CCC(Nc2ccccc2F)CC1` the activation was inactive: 1.91%.
For `CCCOc1ccc(C(=O)NCC2(N(C)C)CCCCC2)cc1OC`, the activation was inactive: -1.46%.
`COc1cccc(OC)c1CN1CCC(Nc2ccccc2)CC1` was tested, and the activation was inactive: -1.15%.
In the case of `CN1CCC(Nc2cccc(F)c2)CC1`, the activation is reported as inactive: 1.94%.
With `O=C(NCC1(N2CCCCC2)CCCCC1)c1cncc(Br)c1` the activation was inactive: 0.226%.
With `Cc1cc(C(=O)NCC2(N3CCOCC3)CCCCC2)c2ccccc2n1` the activation was inactive: -1.19%.
`COc1cc(OC)c(C(=O)NCC2(N(C)C)CCCCC2)cc1OC` was tested, and the activation was inactive: 0.361%.
`Cc1ccc(C(=O)O)cc1N(CCCl)CCCl` was tested, and the activation was inactive: -0.0534%.
`FC(F)(F)Oc1ccc(NC2CCNCC2)cc1` was tested, and the activation was inactive: -0.717%.
`COc1ccc(CN(CCCl)CCCl)cc1Cl` was tested, and the activation was inactive: -1.09%.
With `O=C1CCN(CCc2ccccc2)CC1` the activation was inactive: -0.436%.
In the case of `CN1CCC(Nc2ccc(F)cc2)CC1`, the activation is reported as inactive: -1.33%.
With `CCOC(=O)N1CCC(Nc2ccc(Cl)cc2)CC1` the activation was inactive: 0.121%.
With `CCOC(=O)N1CCC(Nc2ccc(C)cc2)CC1` the activation was inactive: 1.82%.
In the case of `O=C(NCC1(N2CCOCC2)CCCCC1)c1ccc2c(c1)OCO2`, the activation is reported as inactive: 0.679%.
With `NC(=O)C1(Nc2ccccc2)CCN(Cc2ccccc2)CC1` the activation was inactive: 0.152%.
`COc1ccc(C(=O)NCC2(N3CCOCC3)CCCCC2)cc1OC` was tested, and the activation was inactive: 0.859%.
With `COc1cc(C(=O)NCC2(N3CCOCC3)CCCCC2)cc(OC)c1C` the activation was inactive: -0.447%.
In the case of `CCCN1CCC(Nc2cc(OC)cc(OC)c2)CC1`, the activation is reported as inactive: -0.0672%.
With `c1ccc(CN2CCC(Nc3ccccc3)CC2)cc1` the activation was inactive: -2.25%.
In the case of `COc1ccc(CCN2CCC(Nc3ccc(OC)cc3)CC2)cc1`, the activation is reported as inactive: -1.12%.
In the case of `CC(=O)N1CCN(C/C=C/c2ccccc2[N+](=O)[O-])CC1`, the activation is reported as inactive: 1.92%.
With `COc1cccc(OC)c1CN1CCC(=O)CC1` the activation was inactive: 0.45%.
`N#Cc1ccc(C(=O)NCC2(N3CCCCC3)CCCCC2)cc1` was tested, and the activation was inactive: 0.282%.
With `CC(C)(C)OC(=O)N1CCC(Nc2ccc(Cl)cc2Cl)CC1` the activation was inactive: 1.58%.
For `CN1CCC(Nc2ccccc2F)CC1`, the activation was inactive: 0.148%.
With `CCOP(=O)(OCC)SCC(=O)N(CC)CC` the activation was inactive: -0.621%.
`CCN1CCC(Nc2ccc(F)cc2)CC1` was tested, and the activation was inactive: 0.281%.
In the case of `CC1CN(C)C(C)CC1Nc1ccccc1` (centres undefined), the activation is reported as inactive: 0.0922%.
`O=C(NCC1(N2CCCCC2)CCCCC1)c1ccc([N+](=O)[O-])s1` was tested, and the activation was inactive: -0.589%.
`Fc1cccc(NC2CCN(CCc3ccccc3)CC2)c1` was tested, and the activation was inactive: 0.105%.
`Clc1ccc(NC2CCN(Cc3ccccc3)CC2)cc1` was tested, and the activation was inactive: 0.284%.
In the case of `CCCN1CCC(Nc2ccc(Cl)cc2)CC1`, the activation is reported as active: 5.27%.
`CC1CN(Cc2ccccc2)CCC1=O` (centres undefined) was tested, and the activation was inactive: 1.23%.
`[C-]#N.[K+].c1ccc2c(c1)OCCOCCOc1ccccc1OCCOCCO2` was tested, and the activation was inactive: 1.58%.
In the case of `CN(C)C1(CNC(=O)c2cc3c(s2)CCC3)CCCCC1`, the activation is reported as inactive: -0.882%.
In the case of `CN1CCC(Nc2ccccc2Cl)CC1`, the activation is reported as inactive: -0.642%.
With `CN1CCC(Nc2ccc(Cl)cc2)CC1` the activation was inactive: -0.835%.
`COc1ccc(NC2CCN(Cc3ccncc3)CC2)cc1` was tested, and the activation was inactive: 0.0662%.
`CN(C)C1(CNC(=O)c2cc(=O)[nH]c3ccccc23)CCCCC1` was tested, and the activation was inactive: 0.264%.
In the case of `COc1cc(OC)cc(C(=O)NCC2(N3CCOCC3)CCCCC2)c1`, the activation is reported as inactive: -0.222%.
In the case of `CCC(CO)(C(=O)OC1CN2CCC1CC2)c1ccccc1` (centres undefined), the activation is reported as inactive: 0.756%.
In the case of `O=C(O)C1(Nc2ccccc2)CCN(Cc2ccccc2)CC1`, the activation is reported as inactive: -0.632%.
With `CCCOc1ccc(C(=O)NCC2(N(C)C)CCCCC2)cc1` the activation was inactive: 1.26%.
With `CN1CCC(Nc2ccc(F)c(Cl)c2)CC1` the activation was inactive: -1.05%.
In the case of `CC(C)(C)OC(=O)N1CCC(Nc2ccc(F)cc2F)CC1`, the activation is reported as inactive: -0.403%.
For `Fc1ccc(NC2CCN(Cc3ccccc3)CC2)cc1F`, the activation was inactive: 0.0556%.
